# Measured values as given in BindingDB's records for doi:10.1101/2020.07.17.207019 (National Institutes of Health, 2020).
# Biological target: Replicase polyprotein 1ab (Severe acute respiratory syndrome coronavirus 2, UniProt P0DTD1)
compound,measurement,value
CCCC(C=O)NC(=O)C(CC(C)C)NC(=O)C(CC(C)C)NC(=O)OCc1ccccc1 (stereo unspecified) [MG-115],IC50,12.7 µM
